Molecular target: human muscarinic acetylcholine M3 receptor (Homo sapiens, UniProt P20309)
Experiment: competitive filtration binding assay with [3H]NMS at human M3 receptor
Settings: read-out: M3 Ki; membranes from CHO cells stably transfected with human M3 receptor; [3H]NMS 0.25 nM; 17 hours at room temperature; Ki derived by Cheng-Prusoff correction

Chains of the proteins cited; added tags and fusions are not shown.
UniProt P20309, whole entry, looked up: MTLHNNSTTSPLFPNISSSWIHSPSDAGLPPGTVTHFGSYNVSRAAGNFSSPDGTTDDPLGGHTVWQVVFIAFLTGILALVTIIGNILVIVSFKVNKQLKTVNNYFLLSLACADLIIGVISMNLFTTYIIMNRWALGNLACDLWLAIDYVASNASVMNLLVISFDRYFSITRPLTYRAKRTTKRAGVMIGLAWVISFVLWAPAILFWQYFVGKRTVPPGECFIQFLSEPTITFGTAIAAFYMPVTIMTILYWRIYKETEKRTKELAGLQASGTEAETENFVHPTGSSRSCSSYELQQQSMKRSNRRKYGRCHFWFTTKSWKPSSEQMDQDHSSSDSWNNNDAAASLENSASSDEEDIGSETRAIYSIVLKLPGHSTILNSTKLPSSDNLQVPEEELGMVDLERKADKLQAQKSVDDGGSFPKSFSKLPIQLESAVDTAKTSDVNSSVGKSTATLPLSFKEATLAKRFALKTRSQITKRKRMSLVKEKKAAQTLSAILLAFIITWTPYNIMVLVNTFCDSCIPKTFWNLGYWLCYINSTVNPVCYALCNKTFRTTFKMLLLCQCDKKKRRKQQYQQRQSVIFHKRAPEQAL

For `O=C(NCC[N+]12CCC(CC1)[C@@H](OC(=O)C(O)(c1ccccc1)c1ccccc1)C2)c1ccco1`, the Ki was 0.7 nM.
`CCCC#CC[N+]12CCC(CC1)[C@@H](OC(=O)C(O)(c1cccs1)c1cccs1)C2` was tested, and the Ki was 0.2 nM.
Compound `CC(C)C#CC[N+]12CCC(CC1)[C@@H](OC(=O)C(O)(c1cccs1)c1cccs1)C2` has a Ki of 0.7 nM.
With `CCC#CC[N+]12CCC(CC1)[C@@H](OC(=O)C(O)(c1cccs1)c1cccs1)C2` the Ki was 0.5 nM.

Reference: patent US8168654B2 (priority 2003, dated 2012)
